Source: patent US9376387B2 (priority 2013, dated 2016)

Test system: Peripheral Anionic Site (PAS) of AChE

COc1cc2c(cc1OC)C(=O)C(CC1C=CN(Cc3ccccc3C)C=C1C(C)=O)C2 (stereo not shown) [Compound 169, 2-[[3-acetyl-1-(o-tolylmethyl)-4H-pyridin-4-yl]methyl]-5,6-dimethoxy-indan-1-one]
Binding to the PAS measured by propidium iodide displacement: 17%
